Test results as given in PubChem BioAssay AID588832 (Broad Institute, 2011).
Only a part is listed here, and it is no random draw. Active and inactive are the calls of the source. The rule behind the calls is not given here.

The molecules below were run on hedgehog, isoform A (Drosophila melanogaster) (assay: Drosophila hedgehog isoform A inhibitors, primary screen, biochemical, plate reader, single concentration (AID 588832;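 note: 0% = neutral control wells and 100% = positive control wells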)). Conditions: Biochemical plate reader assay, at 30.3 µM, hits give high values.
`O=C1CCN(Cc2ccccc2)CC1` was tested, and the inhibition was inactive: 1.61%.
